# What was measured:
# Protein sequences, listed by entry. Tags and fused reporters are not part of them.
# UniProt P08172, whole entry, looked up: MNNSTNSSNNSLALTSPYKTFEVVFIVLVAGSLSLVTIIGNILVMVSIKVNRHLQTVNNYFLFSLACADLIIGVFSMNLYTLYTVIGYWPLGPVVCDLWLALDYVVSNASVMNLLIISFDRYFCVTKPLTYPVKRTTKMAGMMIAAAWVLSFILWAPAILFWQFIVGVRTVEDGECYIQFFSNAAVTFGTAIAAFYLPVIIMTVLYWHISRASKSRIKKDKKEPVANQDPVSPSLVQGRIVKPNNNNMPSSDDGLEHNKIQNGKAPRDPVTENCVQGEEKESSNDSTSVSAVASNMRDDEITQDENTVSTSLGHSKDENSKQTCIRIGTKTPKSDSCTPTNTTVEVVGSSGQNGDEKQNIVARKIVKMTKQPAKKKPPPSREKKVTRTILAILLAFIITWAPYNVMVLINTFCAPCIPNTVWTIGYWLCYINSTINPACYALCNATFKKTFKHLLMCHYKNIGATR
# human M2 receptor = human M2 receptor (Homo sapiens, UniProt P08172); assay: Functional M2-GIRK1/4 activation test: allosteric potency (EC50) and efficiency at EC20 acetylcholine (B-1.1); settings: for Efficiency: boosting of the acetylcholine effect at an EC20 acetylcholine concentration; for EC50: read-out: Receptor activity EC50, acetylcholine at EC20, allosteric potency, in some cases mean values from two or more determinations
# [1] = molecular target: Human Recombinant M2 Muscarinic Acetylcholine Receptor (Homo sapiens, UniProt P08172); assay: Selectivity test, Ca2+ release (Eurofins GPCRProfiler): allosteric modulator assay, M2 (B-3.2); type: cell-based; settings: for Selectivity (Shift EC50 M2/Shift EC50 M4): Table 2, quotient of allosteric shifts M2/M4
SMILES,Efficiency (human M2 receptor),EC50 (human M2 receptor),Selectivity (Shift EC50 M2/Shift EC50 M4) ([1]; test substance concentration 1 μM),Selectivity (Shift EC50 M2/Shift EC50 M4) ([1]; test substance concentration 10 μM),"Selectivity (Shift EC50 M2/Shift EC50 M1) ([1]; Table 3, quotient of allosteric shifts M2/M1, test substance concentration 10 μM)",Selectivity M2 versus M4 (in words) ([1]; comment on Table 2)
O=C(NC12CC3CC(CC(C3)C1)C2)c1cn(-c2ccc(F)cc2F)c2nc(N3CCCC3=O)ccc2c1=O,99.0%,14 nM,–,–,–,–
O=C(NC12CC3CC(CC(C3)C1)C2)c1cn(-c2ccc(F)cc2F)c2nc(N3CCCC3)ccc2c1=O,91.0%,17 nM,–,–,–,–
Cc1c(Cl)c(OCC(=O)N2CCN(C)CC2)nc2sc(C(=O)NC3CC3)c(N)c12,–,–,0.3,0.8,4,clear tendency in favour of M4

# From patent US20190367516A1 (Bayer Pharma Aktiengesellschaft, priority 2015, published 2019)
